Sequences of proteins named here, by UniProt entry; tags and fusion partners are left off. A change or cut given only in a name is not applied to a line headed by its entry.
UniProt Q92519: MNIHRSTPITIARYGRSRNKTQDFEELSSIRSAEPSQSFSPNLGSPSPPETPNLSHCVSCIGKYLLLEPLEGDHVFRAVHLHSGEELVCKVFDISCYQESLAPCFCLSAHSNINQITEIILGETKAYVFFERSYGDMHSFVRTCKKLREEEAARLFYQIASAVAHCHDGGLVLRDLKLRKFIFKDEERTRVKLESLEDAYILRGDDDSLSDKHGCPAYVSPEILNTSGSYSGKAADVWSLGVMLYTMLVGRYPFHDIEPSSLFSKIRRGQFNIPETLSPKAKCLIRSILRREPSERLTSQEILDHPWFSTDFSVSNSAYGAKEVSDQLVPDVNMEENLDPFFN

In patent US12721838B2 (Henry Ford Health System, priority 2020, dated 2026):

Biological target: T1, Trib2-Luciferase (Luc-Trib2) fusion (Homo sapiens, UniProt Q92519)
T1 sequence (Q92519 with tags, fused parts or gaps): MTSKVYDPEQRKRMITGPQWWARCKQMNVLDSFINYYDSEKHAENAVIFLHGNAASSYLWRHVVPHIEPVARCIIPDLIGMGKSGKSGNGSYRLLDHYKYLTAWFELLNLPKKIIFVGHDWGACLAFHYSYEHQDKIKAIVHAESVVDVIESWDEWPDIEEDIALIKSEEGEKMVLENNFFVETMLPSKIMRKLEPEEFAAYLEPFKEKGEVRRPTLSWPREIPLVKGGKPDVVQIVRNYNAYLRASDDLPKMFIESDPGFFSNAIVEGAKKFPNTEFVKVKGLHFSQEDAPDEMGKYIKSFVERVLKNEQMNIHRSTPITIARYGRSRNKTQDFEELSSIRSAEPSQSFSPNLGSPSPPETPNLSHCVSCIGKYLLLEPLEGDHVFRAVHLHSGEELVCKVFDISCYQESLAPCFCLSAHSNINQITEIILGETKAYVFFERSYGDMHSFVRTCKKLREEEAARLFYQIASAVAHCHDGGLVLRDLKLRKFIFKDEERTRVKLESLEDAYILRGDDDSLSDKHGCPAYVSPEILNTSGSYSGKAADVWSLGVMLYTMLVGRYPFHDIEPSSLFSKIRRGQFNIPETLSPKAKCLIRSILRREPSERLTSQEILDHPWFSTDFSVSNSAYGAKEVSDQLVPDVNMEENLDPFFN
Assay: cell-based
Settings: HFF, read-out: Luciferase activity (%)

O=c1[nH]ccc2c(S(=O)(=O)N3CCCNCC3)cccc12 [Hydroxyfasudil]
activity at 10 µM: 46%
